System: Saccharomyces cerevisiae (ATCC 208352)
Format: cell-based

Structure (SMILES): O=C(O)CCN1C(=O)/C(=C/c2ccc(-c3ccc(Cl)cc3Cl)o2)SC1=S [Compound 4]
- activity against S. cerevisiae: no activity

Structure (SMILES): Cc1cc(Cl)ccc1-c1ccc(/C=C2\SC(=S)N(CC(=O)O)C2=O)o1 [Compound 1]
- activity against S. cerevisiae: no activity
